In PubChem BioAssay (Tox21) one finds activity change, negative = cytotoxicity data, which are given here for 22 compounds.

Several values for one entry are separate records, joined by “and”; a condition that tells them apart may be missing. Equal entries are not always repeated. Only a part is listed here, and it is no random draw. Results filed as inconclusive are left out. Activity calls are given as the source filed them. Calls follow the shape of the full dose curve.
% is scaled to controls: 0 for no effect and ±100 for the full control effect.

The test can be described thus: qHTS assay for small molecule agonists of the p53 signaling pathway - cell viability (AID 651633).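 Also: p53RE-bla HCT reporter cells with a stable beta-lactamase p53 reporter; nearly all actives have a fitted effect of over 30% in size.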 The note with it: p53RE-bla HCT-116 viability, ATP luminescence, 16 h; at 83.3 µM (top of the series) unless noted. An excerpt: National Center for Advancing Translational Sciences [NCATS]
NIH Chemical Genomics Center [NCGC]
U.S. Environmental Protection Agency [EPA]
National Institutes of Environmental Health Sciences [NIEHS]
National Toxicology Program [NTP]
U.S. Food and Drug Administration [FDA]
p53, a tumor suppressor protein, is activated following cellular insult, including DNA damage and other cellular stresses. The activation of p53 regulates cell fate by inducing DNA repair, cell cycle arrest, apoptosis, or cellular senescence. The activation of p53, therefore, is a good indicator of DNA damage and other cellular stresses. […] The activation of the reporter gene under culture conditions can be detected by fluorescence intensity. This cell line was used to screen the Tox21 compound library in a 1536-well plate format and to identify agonists that activate the p53 signaling pathway.
Tox21 Assay Protocol Summary:
The p53RE-bla cells were dispensed at 4,000 cells/5 ul/well in 1536-well black wall/clear bottom plates using a Multidrop dispenser. After the assay plates were incubated at a 37 C/5% CO2 incubator for 5 hours, 23 nL of compounds dissolved in DMSO, positive controls or DMSO only was transferred to the assay plate by a pin tool. The plates were incubated at 37 C for 16 hours. After 1 uL of LiveBLAzerTM B/G FRET substrate was added using a Flying Reagent Dispenser, the plates were incubated at room temperature for 2 hours, and fluorescence intensity was measured by an Envision plate reader.
For cell viability readout that measures cytotoxicity, 4 ul/well of CellTiter-Glo reagent was added into the assay plates using a Flying Reagent Dispenser. After 30 min incubation at room temperature, the luminescence intensity in the plates was measured using a ViewLux plate reader.
On the technique in general: Quantitative high-throughput screening tests each substance at several concentrations.
Regarding `CCOC(=O)Cl`, the activity change, negative = cytotoxicity was inactive: -11.1%. `O=[N+]([O-])c1ccc(S(=O)(=O)O)c([N+](=O)[O-])c1`: the activity change, negative = cytotoxicity was inactive: 11.5% [at 95.3 µM]. Regarding `NC(=O)Nc1ccc([As](=O)(O)O)cc1`, the activity change, negative = cytotoxicity is inactive: -8.42% and inactive: 11.4%. As to `COP(=S)(Cl)OC`, the activity change, negative = cytotoxicity is inactive: 12.3% [at 95.3 µM].

With `CCNC(C)Cc1ccc2c(c1)OCO2` (configuration not stated), the activity change, negative = cytotoxicity was inactive: 24.6% [at 95.3 µM].

With `CCCCC(CC)CO[P+](=O)OCC(CC)CCCC` (configuration not stated), the activity change, negative = cytotoxicity is inactive: 17.3%. On to `CN(C(=O)Cc1cccc2occc12)[C@H]1CC[C@@]2(CCCO2)C[C@@H]1N1CCCC1`, for which the activity change, negative = cytotoxicity was inactive: 4.09%. `Cc1cc([N+](=O)[O-])c(O)c([N+](=O)[O-])c1`: the activity change, negative = cytotoxicity is inactive: -7.86% [at 95.3 µM]. Turning to `CN(C(=O)Cc1ccccc1)[C@H]1CC[C@@]2(CCCO2)C[C@@H]1N1CCCC1`, the activity change, negative = cytotoxicity was inactive: -9.46%.

Consider `O=C(OC1CN2CCC1CC2)c1ccccc1` (configuration not stated), for which the activity change, negative = cytotoxicity was inactive: 20.5%. As to `CCOP(=S)(CC)Sc1ccccc1` (configuration not stated), the activity change, negative = cytotoxicity was inactive: 12.5%. For the compound `O=P(Cl)(Oc1ccccc1)Oc1ccccc1`, the activity change, negative = cytotoxicity is inactive: 19.9%. With `CN(C(=O)Cc1ccc(Cl)c(Cl)c1)[C@H]1CC[C@@]2(CCCO2)C[C@@H]1N1CCCC1`, the activity change, negative = cytotoxicity was inactive: 12%. Then `O=P(Cl)(Cl)c1ccccc1`, with inactive: 20.3%; and `ClP(Cl)c1ccccc1`, with inactive: -11.4%; and `CCCCO[P+](=O)OCCCC`, with inactive: -2.06% and inactive: 5.34%. As for `O=[P+](Oc1ccccc1)Oc1ccccc1`, the activity change, negative = cytotoxicity is inactive: -10.9%. With `O=[p+]1oc2ccccc2c2ccccc21` (configuration not stated), the activity change, negative = cytotoxicity is inactive: 5.45%. As for `CC(C)CCCCCCCOP(OCCCCCCCC(C)C)Oc1ccccc1`, the activity change, negative = cytotoxicity was inactive: -15%. Under `CC(C)OP(=S)(OC(C)C)SCCNS(=O)(=O)c1ccccc1` stands inactive: -24.1%; under `CN(N=O)C(=N)N[N+](=O)[O-]`, inactive: 18.2%; under `COC(=O)Cl`, inactive: 19.2%.
